Laboratory results reported in patent publication US20050282734A1 (priority 1998, published 2005).

What was measured:
[1] = Stability (solubility) of HSA in aqueous ethanol solution (precipitate/turbidity); format: physicochemical; conditions: HSA 100 mg/ml in saline
Protocol: At high concentrations, ethanol causes the denaturation of most proteins. Without wishing to be bound by any particular theory, inventors thought that ethanol can reduce water availability to below the level at which proteins remain functionally and structurally stable. […] This experiment had one objective: to determine the maximum working ethanol concentration that had minimal effect on the stability of HSA in aqueous ethanol solutions.
Reagent Preparation • 1. A 10 ml stock solution of HSA (200 mg/ml aqueous solution) was prepared in a small vial and designated the 200 HSA stock solution. • 2. Three 20-ml saline stock solutions of 1×, 2× and 4× the normal NaCl concentration in physiological saline were also prepared in small bottles (or flasks) and designated the 1× Saline, 2× Saline and 4× Saline stock solutions, respectively.
1. Three sets of conical tubes were labeled as 1×, 2× and 4× corresponding to the 3 different saline stock solutions, respectively. • 2. 500 μL of 200 HSA stock was aliquoted into all 3 sets of tubes, and was preincubated at room temperature. • 3. Different amounts of appropriate saline stock solution were added to each set of tubes according to the Table 2. • 4. Ethanol was added to each set of 5 tubes to give final concentrations of 5, 10, 15, 20 and 25%, and none to the control tube, according to the Table 2. • 5. The tubes were incubated at room temperatures and observed at 0 h, 1 h and 3 h for precipitate formation. The results were recorded by + or − turbidity formation.

[2] = cited from earlier work

Substance: HSA: human serum albumin, commercial 20% solution; carrier excipient
- turbidity of HSA solutions containing 30% ethanol [1]: some increase in turbidity
- ethanol concentration at which HSA solutions turned cloudy instantly ([1]; room temperature): ≥ 35%
- ethanol concentration at which clear HSA solutions were obtained ([1]; room temperature): up to 25 % (v/v)
- pI ([2]; defatted HSA): 5.3
- pI ([2]; non-defatted HSA): 4.7

Read-outs that look alike come from different tables or passages of the source.
